Source: US20210380930A1, “METHODS, APPARATUS AND KITS FOR BACTERIAL CELL LYSIS” (TECHNISCHE UNIVERSITÄT WIEN, priority 2018, published 2021)

Tested on: qPCR amplification of a diagnostic fragment of the Enterococcus spp. 23S rRNA gene (DNA plasmid standard)
Conditions: 762 mM IL; 10^4 DNA target copies

Compound | inhibition of the qPCR amplification
CCCCCCn1cc[n+](C)c1.[Cl-] [[C6mim]Cl, 1-Hexyl-3-methylimidazolium chloride, reference compound] | substantially interfered with the reaction
C[N+](C)(C)CCO [[Cho]DBP, Choline dibutylphosphate] | completely inhibited the amplification
CCCCCC(=O)[O-].C[N+](C)(C)CCO [[Cho]Hex, Choline hexanoate] | completely inhibited the amplification
